According to patent US8536196B2, “Substituted 1,3-dioxanes useful as PPAR modulators” (Evolva SA, priority 2007, dated 2013):

Target: T1, Thromboxane synthase (Homo sapiens, UniProt P24557)
T1 sequence (P24557 1-533): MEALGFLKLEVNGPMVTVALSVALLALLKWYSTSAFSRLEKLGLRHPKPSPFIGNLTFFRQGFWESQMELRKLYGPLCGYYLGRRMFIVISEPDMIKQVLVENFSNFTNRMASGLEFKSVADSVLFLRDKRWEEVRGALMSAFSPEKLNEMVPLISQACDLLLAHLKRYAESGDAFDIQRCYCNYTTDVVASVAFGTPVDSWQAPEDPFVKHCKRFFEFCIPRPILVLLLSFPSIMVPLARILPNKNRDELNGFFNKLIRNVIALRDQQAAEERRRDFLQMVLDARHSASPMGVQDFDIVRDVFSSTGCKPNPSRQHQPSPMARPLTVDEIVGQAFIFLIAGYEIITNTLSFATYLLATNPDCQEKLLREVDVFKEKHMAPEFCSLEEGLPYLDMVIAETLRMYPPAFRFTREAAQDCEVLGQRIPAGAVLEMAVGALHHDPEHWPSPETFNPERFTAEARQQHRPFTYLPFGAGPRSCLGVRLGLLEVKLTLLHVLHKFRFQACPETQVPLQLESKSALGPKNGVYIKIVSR
Experiment: Human platelet thromboxane synthase assay
Type: biochemical

Question: For `O=C(O)CC/C=C\C[C@H]1COC(c2ccccc2Cl)O[C@H]1c1ccccc1O` (single isomer, unassigned) [Compound A], which IC50 is on record?
Answer: Its IC50 is 12.1 µM.
